Assay: Tested for maximum agonist response at concentration 10 uM, relative to that obtained with standard agonist U50,488.

Q: Which Max agonist response does the source give for `CN(C(=O)Cc1ccc(Cl)c(Cl)c1)C1CCCCC1N1CCCC1` (stereo unspecified) here?
A: Its Max agonist response is 100%.
